Assay results published in PMC8958505, “Discovery of Potential Neuroprotective Agents against Paclitaxel-Induced Peripheral Neuropathy” (Journal of Medicinal Chemistry, 2022).
pIC50: −log10 of the molar value. Counter-ions that a name gives are not always drawn.

How the values were obtained:
[1] = biological target: T1, hERG (Homo sapiens, UniProt Q12809); test: LeadProfilingScreen: Potassium Channel hERG; type: binding
[2] = biological target: T2, CYP 1A2 (Homo sapiens, UniProt P05177); test: Cytochrome P450 testing, CYP 1A2; type: in vitro ADME; settings: phenacetin O-deethylation; read-out: Concentration of inhibition (IC50), CYP 1A2
T2 construct: host or cells: baculovirus-infected insect cells (supersomes)
Source text: (§1) Cytochrome P450 testing of CN016
(§2) The effects of CN016 on the activity of six specific human liver cytochrome P450 isozymes (CYP 1A2, 2C9, 2C19, 2D6, 2E1, 3A4) expressed in baculovirus-infected insect cell supersomes were studied. The reactions used to measure the activity of these enzymes were phenacetin O-deethylation (1A2), diclofenac 4-hydroxylation (2C9), mephenytoin 4-hydroxylation (2C19), dextromethorphan O-demethylation (2D6), chlorzoxazone 6-hydroxylation (2E1) and testosterone 6-hydroxylation (3A4).
(§3) Furafylline, sulfaphenazole, tranylcypromine, quinidine, diethyldithiocarbamate and azamulin were used as reference inhibitors of these enzymes. Incubation mixtures containing no CN016 or reference inhibitors were used as controls. The tested result […]
(§4) Table S4. Result of Cytochrome P450 testing of CN016

[3] = biological target: Opiate µ (OP3, MOP) (Homo sapiens, UniProt P35372); test: LeadProfilingScreen: Opiate µ (OP3, MOP); type: binding
[4] = biological target: Estrogen ERα (Homo sapiens, UniProt P03372); test: LeadProfilingScreen: Estrogen ERα; type: binding
[5] = biological target: Histamine H1 (Homo sapiens, UniProt P35367); test: LeadProfilingScreen: Histamine H1; type: binding
[6] = biological target: GABAB1A (Homo sapiens, UniProt Q9UBS5); test: LeadProfilingScreen: GABAB1A; type: binding
[7] = biological target: T3, CYP 2C9 (Homo sapiens, UniProt P11712); test: Cytochrome P450 testing, CYP 2C9; type: in vitro ADME; settings: diclofenac 4-hydroxylation; read-out: Concentration of inhibition (IC50), CYP 2C9
T3 construct: host or cells: baculovirus-infected insect cells (supersomes)
Source text: as §1, §2, §3, §4

[8] = biological target: Serotonin (5-Hydroxytryptamine) 5-HT2B (Homo sapiens, UniProt P41595); test: LeadProfilingScreen: Serotonin 5-HT2B; type: binding; settings: read-out: Inhibition (%), Serotonin (5-Hydroxytryptamine) 5-HT2B
Source text: LeadProfilingScreen (Total # of Assays: 67)
To evaluate, in LeadProfilingScreen, the activity of test compound CN168 (Panlabs # 1251879). […]
Summary of Significant Results
Biochemical assay results are presented as the percent inhibition of specific binding or activity throughout the report.
All other results are expressed in terms of that assay's quantitation method.
• For primary assays, only the lowest concentration with a significant response judged by the assays' criteria, is […]
• Where applicable, either the secondary assay results with the lowest dose/concentration meeting the significance […]
• Unless otherwise requested, primary screening in duplicate with quantitative data (e.g., IC50 ± SEM, Ki ± SEM and nH) are shown where applicable for individual requested assays. In screening packages, primary screening in duplicate with semi-quantitative data (e.g., estimated IC50, Ki and nH) are shown where applicable (concentration range of 4 log units); available secondary functional assays are carried out ([…]) and MEC or MIC determined only if active in primary assays >50% at 1 log unit below initial test concentration. […]

[9] = tested on: Calcium Channel L-Type, Dihydropyridine; test: LeadProfilingScreen: Calcium Channel L-Type, Dihydropyridine; type: binding, rat; settings: 10 μM
[10] = biological target: Adrenergic α2A (Homo sapiens, UniProt P08913); test: LeadProfilingScreen: Adrenergic α2A; type: binding
[11] = biological target: Leukotriene, Cysteinyl CysLT1 (Homo sapiens, UniProt Q9Y271); test: LeadProfilingScreen: Leukotriene, Cysteinyl CysLT1; type: binding
[12] = biological target: T1, hERG; test: hERG patch-clamp assay (hERG-CHO, automated patch-clamp); type: cell-based; set-up: host or cells: CHO (hERG-CHO)
Experimental: CN016 were tested in the hERG (hERG-CHO, automated patch-clamp) assay and determined at Eurofins Panlabs (Missouri, USA). The experiment was accepted in accordance with Eurofins validation Standard Operating Procedure. The tested result […]
Table S3. Result of hERG patch-clamp assay of CN016

[13] = tested on: paclitaxel-induced neuropathy in C57BL/6 mice; test: Tail immersion test (thermal sensation) in paclitaxel-induced neuropathy; type: in vivo, mouse
Experimental: Three behavioral models of paclitaxel-induced neuropathy were used to verify the neuroprotective effect of CN016. Namely, thermal and mechanical nociceptive reactions described below were evaluated by tail immersion and von Frey filament tests, respectively, and motor coordination was assessed with the rotarod performance test (Supporting Information, Figure S1A,B). To mimic the clinical therapeutic regimen, CN016 (5, 10 and 20 mg/kg) was administrated to 7-week-old female C57BL/6 mice by intraperitoneal injection (IP) 1 h prior to each injection of paclitaxel (4.5 mg/kg) on four alternate days (days 1, 3, 5, and 7). Each test’s basal level was recorded before treatment, and additional sessions of behavior tests were performed weekly for five weeks (Figure 4A).
The baseline of every neurological behavior test was measured in 6-week-old C57BL/6J female mice prior to treatment. […] Mechanical hyperalgesia was evaluated by using von Frey filament (#2390, IITC Inc., USA), thermal sensitivity was determined by the tail immersion assay (water temperature: 48–49 °C), and motor coordination was assessed by rotarod (#7750, Ugo Basile Biological Research Apparatus, Italy). After the first drug implantation, the body weight was recorded every 6 days throughout the entire experiment.

[14] = biological target: Muscarinic M3 (Homo sapiens, UniProt P20309); test: LeadProfilingScreen: Muscarinic M3; type: binding
[15] = biological target: Dopamine D3 (Homo sapiens, UniProt P35462); test: LeadProfilingScreen: Dopamine D3; type: binding
[16] = tested on: Sodium Channel, Site 2; test: LeadProfilingScreen: Sodium Channel, Site 2; type: binding, rat; settings: 10 μM
[17] = biological target: Transporter, Dopamine (DAT) (Homo sapiens, UniProt Q01959); test: LeadProfilingScreen: Transporter, Dopamine (DAT); type: binding
[18] = biological target: Bradykinin B2 (Homo sapiens, UniProt P30411); test: LeadProfilingScreen: Bradykinin B2; type: binding
[19] = biological target: Endothelin ETB (Homo sapiens, UniProt P24530); test: LeadProfilingScreen: Endothelin ETB; type: binding
[20] = biological target: Interleukin IL-1 R1 (Homo sapiens, UniProt P14778); test: LeadProfilingScreen: Interleukin IL-1 R1; type: binding

O=P(O)(O)CCN1CCC(Nc2cc(N3CCOCC3)nc(NCc3cn(CCCO)nn3)n2)CC1 [CN016, {2-[4-(2-{[1-(3-Hydroxy-propyl)-1H-[1,2,3]triazol-4-ylmethyl]-amino}-6-morpholin-4-yl-pyrimidin-4-ylamino)-piperidin-1-yl]-ethyl}-phosphonic Acid Hydrobromide Salt]
inhibition at 10 µM [1]: -3%
pIC50 [2]: < 4.00
inhibition at 10 µM [3]: 1%
inhibition at 10 µM [4]: -17%
inhibition at 10 µM [5]: 19%
inhibition at 10 µM [6]: 14%
pIC50 [7]: < 4.00
inhibition at 10 µM [8]: 10%
Inhibition (%), Calcium Channel L-Type, Dihydropyridine [9]: 14%
inhibition at 10 µM [10]: -4%
inhibition at 10 µM [11]: -8%
inhibition at 1 µM ([12]; human, CHO cells that express hERG (hERG-CHO), 1 μM): 6%
inhibition at 10 µM ([12]; human, CHO cells that express hERG (hERG-CHO), 10 μM): 19.1%
inhibition at 100 µM ([12]; human, CHO cells that express hERG (hERG-CHO), 100 μM): 32.9%
hERG liability ([12]; up to 100 μM, patch-clamp): not observed
alleviation of thermal insensitivity (tail immersion) ([13]; CN016 5 mg/kg IP 1 h prior to paclitaxel 4.5 mg/kg): only moderately alleviated
alleviation of paclitaxel-induced thermhypesthesia (tail immersion) ([13]; CN016 10 or 20 mg/kg IP 1 h prior to paclitaxel 4.5 mg/kg, days 1, 3, 5, 7): able to alleviate
inhibition at 10 µM [14]: 0%
inhibition at 10 µM [15]: -3%
Inhibition (%), Sodium Channel, Site 2 [16]: -1%
inhibition at 10 µM [17]: 0%
inhibition at 10 µM [18]: -4%
inhibition at 10 µM [19]: -1%
inhibition at 10 µM [20]: -3%
